Like-named read-outs stand apart in the source and are kept apart here.
Target: LPAR1 (Homo sapiens, UniProt Q92633)
Assay: Cell calcium flux assay (antagonist mode, LPA at EC80, FLIPR)
Method: • 1) The test compound was diluted to a 400X stock solution with DMSO in a 384-well plate. • 2) 1 µl of compound solution from step 1 was transferred into 39 ul of assay buffer to prepare a 10X working solution in a 384-well plate using a Bravo automated liquid handling platform. • 3) CHO-LPA1 cells were cultured in F12 medium (10% FBS). • 4) When cells reached 80% confluence, the cells were dissociated using 0.25% trypsin-EDTA. • 5) Cell density was determined and the cells were diluted to 4x10e5/ml using F12 (10% FBS). • 6) 30 µl of the cell suspension was dispensed into a 384-well plate (corning 3764#) using a multidrop automated dispenser, resulting in 12,000 cells per well. The plate was incubated at 37°C with 5% CO2 for 18-20 hours. • 7) The medium was replaced with 25 uL of serum-free medium and incubated overnight. • 8) 10 ul of 3.5X loading dye was added to each well of the cell plate. The plate was incubated in the dark at 37°C with 5% CO2 for 0.5-1 hours. • 9) After incubation, 5 µl of the 10X working solution from step 2 was transferred to the cell plate. • 10) The cell plate was incubated in the dark at 25°C for 15 minutes, and then the calcium signals were read. • 11) A 5X agonist (LPA) working solution in 1X HBSS+20 mM HEPES+0.1% BSA was prepared in a 384-well assay plate (greiner 784075#), with at least 20 µl per well. The agonist concentration used in this assay was determined based on the dose-response curve from a prior agonist mode experiment, with the EC80 value serving as the final agonist concentration. • 12) Data were read and saved using FLIPR at room temperature with the specified settings. • 13) The signal values were plotted against compound concentrations, and the curve fitting was performed and the IC50 values were calculated using nonlinear regression analysis in GraphPad Prism software.
IC50 values are represented by grades A, B, C, and D, where A represents 0 < IC50 ≤ 10 nM, B represents 10 nM < IC50 ≤ 50 nM, C represents 50 nM < IC50 ≤ 100 nM, and D represents IC50 > 100 nM. […]

Amino acid sequences for entries named in this document (tags omitted).
UniProt Q92633, whole entry: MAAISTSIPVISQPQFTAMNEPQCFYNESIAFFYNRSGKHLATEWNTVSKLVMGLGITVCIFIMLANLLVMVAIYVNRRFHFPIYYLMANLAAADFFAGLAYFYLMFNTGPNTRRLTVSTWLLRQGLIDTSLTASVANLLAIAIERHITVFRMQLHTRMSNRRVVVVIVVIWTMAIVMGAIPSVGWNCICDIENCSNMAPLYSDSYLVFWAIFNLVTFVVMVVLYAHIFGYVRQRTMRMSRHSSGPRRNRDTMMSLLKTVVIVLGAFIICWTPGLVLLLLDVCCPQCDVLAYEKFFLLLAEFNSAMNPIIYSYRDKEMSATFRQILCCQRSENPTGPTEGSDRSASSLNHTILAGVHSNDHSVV

[1] = read-out: LPAR1 IC50, CHO-LPA1 cells, grades, tested form: free acid

Row | IC50 [1] | IC50 (read-out: LPAR1 IC50, CHO-LPA1 cells, grades, tested form: TFA) | SMILES
1 | 10 to 50 nM |  | CCCN(C)C(=O)OCc1c(-c2ccc(N3CCC4CCC(C(=O)O)CC43)c(C)n2)nnn1C (stereo not drawn)
2 | 10 to 50 nM |  | C=C1CC(N(C)C(=O)OCc2c(-c3ccc(N(C)C4CCCC(C(=O)O)C4)c(C)n3)nnn2C)C1 (single isomer, unassigned)
3 |  | < 10 nM | C=C1CC(N(C)C(=O)OCc2c(-c3ccc(OC4CC(C(=O)O)CC5C4C5(F)F)c(C)n3)nnn2C)C1 (single isomer, unassigned)
